Laboratory results taken from patent US20250032489A1, “MIXED LINEAGE KINASE INHIBITORS AND METHODS OF USE” (The U.S.A., as represented by the Secretary, Department of …, priority 2022, published 2025).

Protein sequences, listed by entry. Tags and fused reporters are not part of them.
UniProt O43283, whole entry: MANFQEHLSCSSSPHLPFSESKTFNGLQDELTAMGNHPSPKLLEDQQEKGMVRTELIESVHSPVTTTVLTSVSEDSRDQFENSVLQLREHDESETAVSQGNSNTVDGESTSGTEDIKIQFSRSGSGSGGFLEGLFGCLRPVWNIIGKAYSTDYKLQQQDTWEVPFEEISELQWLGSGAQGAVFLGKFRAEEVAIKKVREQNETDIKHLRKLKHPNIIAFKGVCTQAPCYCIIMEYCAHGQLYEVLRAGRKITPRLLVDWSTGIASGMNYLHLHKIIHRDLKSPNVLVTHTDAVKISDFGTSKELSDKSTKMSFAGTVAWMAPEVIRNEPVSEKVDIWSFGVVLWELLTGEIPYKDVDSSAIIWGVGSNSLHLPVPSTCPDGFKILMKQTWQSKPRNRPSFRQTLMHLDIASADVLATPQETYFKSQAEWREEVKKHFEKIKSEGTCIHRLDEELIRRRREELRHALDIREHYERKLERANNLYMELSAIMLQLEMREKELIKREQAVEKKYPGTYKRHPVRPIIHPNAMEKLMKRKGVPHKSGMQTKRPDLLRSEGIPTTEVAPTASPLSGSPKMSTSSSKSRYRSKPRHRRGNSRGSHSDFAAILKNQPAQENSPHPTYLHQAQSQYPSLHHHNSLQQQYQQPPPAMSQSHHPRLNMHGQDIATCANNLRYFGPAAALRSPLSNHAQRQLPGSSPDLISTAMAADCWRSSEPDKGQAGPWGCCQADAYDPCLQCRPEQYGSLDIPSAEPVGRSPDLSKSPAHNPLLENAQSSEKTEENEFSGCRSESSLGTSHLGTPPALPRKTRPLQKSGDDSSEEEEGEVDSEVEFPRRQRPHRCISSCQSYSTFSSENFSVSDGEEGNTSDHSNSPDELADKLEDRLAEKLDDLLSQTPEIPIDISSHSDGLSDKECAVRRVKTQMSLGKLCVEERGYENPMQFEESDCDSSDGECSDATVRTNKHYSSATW

Target: LZK (Homo sapiens (Human), UniProt O43283)
Test: KD determination, Eurofins DiscoveRx Kd-Elect
Assay type: binding
Conditions: ratio of LZK Kd to DLK Kd

SMILES: Cc1cnc(Nc2cc(C3CCN(C)CC3)cc(N3CCC(F)(F)C3)n2)cn1
- Ratio (LZK/DLK): 1.3
